BindingDB's records for doi:10.1021/jm030165t (National Center For Genetic Engineering and Biotechnology …, 2004)

Protein sequences, listed by entry. Tags and fused reporters are not part of them. Lines headed by an entry give the natural chain unless they say otherwise; changes in a name come on top.
UniProt P13922: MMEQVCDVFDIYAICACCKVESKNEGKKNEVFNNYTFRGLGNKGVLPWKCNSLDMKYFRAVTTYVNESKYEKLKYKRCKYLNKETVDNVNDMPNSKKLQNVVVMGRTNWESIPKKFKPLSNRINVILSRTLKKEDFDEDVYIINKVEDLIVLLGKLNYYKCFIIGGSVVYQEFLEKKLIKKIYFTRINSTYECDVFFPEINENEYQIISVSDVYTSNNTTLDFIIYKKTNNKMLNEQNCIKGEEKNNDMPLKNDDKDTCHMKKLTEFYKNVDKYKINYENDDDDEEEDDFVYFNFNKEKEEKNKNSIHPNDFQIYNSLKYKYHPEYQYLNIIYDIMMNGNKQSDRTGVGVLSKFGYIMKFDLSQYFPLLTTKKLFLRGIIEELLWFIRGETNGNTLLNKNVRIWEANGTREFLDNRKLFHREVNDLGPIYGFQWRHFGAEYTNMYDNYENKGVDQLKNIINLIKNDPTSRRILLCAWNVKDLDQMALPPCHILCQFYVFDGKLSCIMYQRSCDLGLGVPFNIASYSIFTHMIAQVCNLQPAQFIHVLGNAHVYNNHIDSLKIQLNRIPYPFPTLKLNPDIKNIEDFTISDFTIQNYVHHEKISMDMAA

How the values were obtained:
[1] = In vitro anti-plasmodial activity against Plasmodium falciparum dihydrofolate reductase N51I/C59R/S108N (W2)
[2] = In vitro anti-plasmodial activity against Plasmodium falciparum dihydrofolate reductase A16V/S108T (T9/94RC17) mutant
[3] = target: Bifunctional dihydrofolate reductase-thymidylate synthase (Plasmodium falciparum (isolate K1 / Thailand), UniProt P13922); assay: Binding affinity towards wild-type dihydrofolate reductase of Plasmodium falciparum.
[4] = In vitro anti-plasmodial activity against Plasmodium falciparum dihydrofolate reductase wild type (TM4/8.2)
[5] = In vitro anti-plasmodial activity against Plasmodium falciparum dihydrofolate reductase C59R/S108N (K1CB1) mutant
[6] = In vitro anti-plasmodial activity against Plasmodium falciparum dihydrofolate reductase […]/C59R/S108N/I164L (V1/S) mutant
[7] = In vitro anti-plasmodial activity against Plasmodium falciparum dihydrofolate reductase C59R+S108N/I164L (Csl-2) mutant

| SMILES | IC50 [1] | IC50 [2] | Ki [3] | IC50 [4] | IC50 [5] | IC50 [6] | IC50 [7] |
| --- | --- | --- | --- | --- | --- | --- | --- |
| CC1(C)N=C(N)N=C(N)N1c1cccc(Cl)c1 [1-(3-chlorophenyl)-6,6-dimethyl-1,6-dihydro-1,3,5-triazine-2,4-diamine] | 220 nM | 330 nM | 3 nM | 50 nM | 220 nM | 1300 nM | 520 nM |
| CCCOc1ccc(C2N=C(N)N=C(N)N2c2cccc(Cl)c2)cc1 (stereo not drawn) [1-(3-chlorophenyl)-6-(4-propoxyphenyl)-1,6-dihydro-1,3,5-triazine-2,4-diamine] | – | – | 3.3 nM | – | – | – | – |
